Experiment [1] has as its system MDA‐MB‐436 (BRCA1‐deficient) xenograft. Nature of the experiment: MDA‐MB‐436 cell‐line‐derived xenograft model. The class given is in vivo, nude mice. As to conditions: day 21.
Experiment [2] relates to MX‐1 (BRCA1‐deficient, BRCA2‐mutated) xenograft. Nature of the experiment: MX‐1 cell‐line‐derived xenograft model. The class given is in vivo, nude mice. The settings on record: 10 mg/kg combined with TMZ 50 mg/kg, Figure 6C.
Where [3] appears, read: 3 mg/kg combined with TMZ 50 mg/kg.

For the molecule `O=C(c1cc(Cc2n[nH]c(=O)c3ccccc23)ccc1F)N1CCN(C(=O)C2CC2)CC1` [Olaparib], in experiment [1] (setting [3]), the partial tumor regression is on record as 5/6.

For the molecule `O=C(c1cc(Cc2n[nH]c(=O)c3ccccc23)ccc1F)N1CCn2nc(C(F)(F)F)nc2C1` [Fluzoparib], the partial tumor regression is reported as 5/6 in experiment [2], 4/6 in experiment [1] (1 mg/kg combined with TMZ 50 mg/kg) and 6/6 in experiment [1] (setting [3]).
